Rev-erbA mod – modulators of human Rev-erb alpha DNA binding; Rev-erbα–FITC-DNA binding, fluorescence polarization, 90 min; activity, % at 10 µM; actives 0.79% (n = 370,000); AID 1259318;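 active means activity above about 14%, limit read from the data; passing the limit was not always enough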;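 further: 0% = DMSO wells with 35 nM protein and 100% = DMSO wells with 750 nM protein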
Yeast UUG start – alters start codon recognition fidelity in yeast; S. cerevisiae UUG-firefly luciferase reporter, luminescence/redox ratio; activity score, % at 18.7 µM; actives 0.13% (n = 350,000); AID 602363;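 active = replicate mean at a twofold rise or more, about +100% in these data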;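 also: firefly luciferase made from a UUG start codon reports start codon fidelity; reporter light over untreated wells divided by growth signal over untreated wells; some hits fall short of that in this replicate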
PDI inh – blocks human protein disulfide isomerase activity. AID 588391. P07237. PDI insulin aggregation turbidity, A650, 90 min. inhibition, % at 10 µM. actives 0.052% (n = 350,000);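 active means mean inhibition across replicates of 30% or more, whatever share of single replicates reach that level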
INS-1E GSIS act – primary screen for activators of insulin secretion dependent on glucose, INS-1E cells, GLuc reporter luminescence. INS-1E GLuc reporter insulin secretion, 2-3 h. activation, % at 16.6 µM. actives 0.61% (n = 370,000);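 active means lowest replicate activation of at least 40%, so every replicate reaches that level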;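 further: 0% = median of neutral control wells and 100% = median of IBMX positive control wells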
ERp5 block – ERp5 (human) disulfide isomerase inhibition. Q15084. ERp5 insulin aggregation, absorbance 650 nm, 90 min. inhibition, % at 9.99 µM. actives 0.05% (n = 350,000);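 active means mean replicate inhibition above about 25%, with every replicate also reaching it, limit read from the data, passing the limit was not always enough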
SMARCA2 act – SMARCA2 function activation, primary screen. MG213 cells, MMTV-luciferase reporter, dexamethasone, overnight. activation, % at 9.1 µM. actives 1% (n = 370,000); in the data active means activation above about 7.8%;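 further: 0% = vehicle wells and 100% = reference activator wells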
NR1D1 mod conf – Rev-erb alpha (human) modulation, hit confirmation. shares compounds with Rev-erbA mod. Rev-erb alpha FITC-DNA binding, fluorescence polarization, 90 min. activation, % at 25 µM. actives 61% (n = 3,000);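 active means activation at or above a set limit, or at least 3 SD above the negative control mean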;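 further: 0% = 35 nM protein with DMSO and 100% = 750 nM protein high control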
RORg DNA counter – affects RORgamma DNA binding in a Rev-erb alpha counter-screen. AID 1259320. purified RORgamma protein-FITC-DNA binding, fluorescence polarization. shares compounds with Rev-erbA mod. IC50, µM. actives 8% (n = 910);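 active means Compounds whose fitted half-maximal concentration for disrupting protein-DNA binding is below 10 micromolar; the record names Rev-erb in its text, so the target is in doubt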
* hit, by the source's call. Shown are actives, neighbours in structure and some others; about 2.1% of the full set was active somewhere.

`COc1cc(N=Nc2ccc(C)cc2S(N)(=O)=O)c(C)cc1N` gave Rev-erbA mod 25*, Yeast UUG start 12, PDI inh -2, INS-1E GSIS act -1, ERp5 block 8, SMARCA2 act -1 and NR1D1 mod conf 21*.
For COc1cc(S(N)(=O)=O)c(OC)cc1N the results were Rev-erbA mod 3, Yeast UUG start -12, PDI inh -1, INS-1E GSIS act 4, ERp5 block 2 and SMARCA2 act -2.
Screening Cc1cc(NC(=O)Cn2nc(-c3cccs3)ccc2=O)cc(C)c1Br returned Rev-erbA mod 6, Yeast UUG start -3, PDI inh 0, INS-1E GSIS act 48, ERp5 block -2 and SMARCA2 act -3.
Cc1c(Br)ccc(NC(=O)Cn2nc(-c3cccs3)ccc2=O)c1C was read as Rev-erbA mod 50*, Yeast UUG start -8, PDI inh -1, INS-1E GSIS act 14, ERp5 block 2, SMARCA2 act 0, NR1D1 mod conf 42* and RORg DNA counter >40.
For O=c1oc2ccccc2c(NC(c2ccccc2)c2ccccc2)c1[N+](=O)[O-] the results were Rev-erbA mod 39*, Yeast UUG start -16, PDI inh 17, SMARCA2 act -4, NR1D1 mod conf 60* and RORg DNA counter inactive.
For O=S(=O)(c1ccccc1)N1CC2(C1)[C@H](c1ccccc1)[C@@H](CO)N2CC1CCOCC1 the results were INS-1E GSIS act 6 and ERp5 block 5.
COC(=O)c1sc(NC(=O)C(C)C)c(C(=O)OC)c1C was read as Rev-erbA mod 22*, Yeast UUG start -18, PDI inh -6, INS-1E GSIS act 12, SMARCA2 act -4 and NR1D1 mod conf 5.
Screening CCOC(=O)c1sc(NC(=O)C(C)C)c(C#N)c1C returned Rev-erbA mod 47*, PDI inh -7, INS-1E GSIS act 5, ERp5 block -2, SMARCA2 act -2 and NR1D1 mod conf 26*.
COc1cc(/C=C2/SC(=S)N(CC(=O)O)C2=O)ccc1OC(=O)c1ccco1 was read as Rev-erbA mod 25*, Yeast UUG start 1, PDI inh 17, INS-1E GSIS act -16, ERp5 block -1, SMARCA2 act -1 and NR1D1 mod conf 2.
`COc1cc(/C=C2\SC(=S)N(CC(=O)O)C2=O)ccc1OC(=O)c1ccco1` gave Rev-erbA mod 15, Yeast UUG start -9, PDI inh 9, INS-1E GSIS act -3, ERp5 block 0 and SMARCA2 act 0.
`COc1ccc(/C=C2\SC(=O)N(CCC(=O)Nc3ccccc3)C2=O)cc1OC` gave Rev-erbA mod 32*, PDI inh 5, INS-1E GSIS act 53*, SMARCA2 act -3, NR1D1 mod conf 34* and RORg DNA counter >40.
Screening CCCNC(=O)C[C@H]1CC[C@@H]2[C@H](COc3ccc(NC(=O)c4cscn4)cc3C(=O)N2C)O1 returned Yeast UUG start 0, INS-1E GSIS act 5 and ERp5 block 4.
`Cc1ccc(S(=O)(=O)Nc2cccc3c2O[C@@H](CN(C)CC2CCCCC2)[C@@H](C)CN([C@@H](C)CO)C3=O)cc1` gave Yeast UUG start 1, INS-1E GSIS act -6 and ERp5 block 1.
For COc1ccc(-c2noc(COc3ccc4ccccc4c3Br)n2)cc1OC the results were Rev-erbA mod 29*, Yeast UUG start -12, PDI inh -4, SMARCA2 act 3 and NR1D1 mod conf 17*.
Screening COc1ccc(-c2noc(COc3ccc(C)c(C)c3)n2)cc1OC returned Rev-erbA mod -2, Yeast UUG start -7, PDI inh -13 and SMARCA2 act -1.
Screening O=[N+]([O-])c1ccc(N/N=C/c2sc(N3CCOCC3)nc2-c2ccccc2)c(S(=O)(=O)Nc2ccc(Cl)cc2)c1 returned Rev-erbA mod 14, PDI inh -8, INS-1E GSIS act 3, ERp5 block -2 and SMARCA2 act -2.
`O=[N+]([O-])c1ccc(N/N=C/c2sc(N3CCOCC3)nc2-c2ccccc2)c(S(=O)(=O)Nc2ccccc2Cl)c1` gave Rev-erbA mod 24*, PDI inh -4, INS-1E GSIS act -43, SMARCA2 act -1 and NR1D1 mod conf 2.
`C[C@H](CO)N1C[C@H](C)[C@H](CN(C)C(=O)Nc2ccc(F)cc2)Oc2ncc(C#CCN(C)C)cc2C1=O` gave Yeast UUG start 23, INS-1E GSIS act -8 and ERp5 block -5.
COc1cc2[nH]c(C(=O)N3CCc4ccccc4C3)cc2c(OC)c1OC was read as Rev-erbA mod -4, Yeast UUG start -26, PDI inh -2, INS-1E GSIS act -52, ERp5 block 1 and SMARCA2 act -3.
For COc1cc2cc(C(=O)N3CCc4ccccc4C3)[nH]c2cc1OC the results were Rev-erbA mod 28*, Yeast UUG start -19, PDI inh 10, INS-1E GSIS act 1, ERp5 block -3, SMARCA2 act 3 and NR1D1 mod conf 11.
Screening COc1cc2cc(C(=O)N(C)Cc3ccccc3)[nH]c2cc1OC returned Rev-erbA mod 31*, Yeast UUG start -3, PDI inh 4, INS-1E GSIS act 0, ERp5 block -3, SMARCA2 act 1 and NR1D1 mod conf 12.
Screening CC(=O)Nc1cccc2c1O[C@H](CN(C)S(C)(=O)=O)[C@@H](C)CN(C)C2=O returned INS-1E GSIS act 2.
CC(=O)Nc1ccc2nc(NC(=O)COc3ccccc3)sc2c1 was read as Rev-erbA mod 3, Yeast UUG start -18, PDI inh 3, INS-1E GSIS act 12, ERp5 block 0 and SMARCA2 act -4.
For O=C(COc1ccccc1)Nc1nc2cc3c(cc2s1)OCCO3 the results were Rev-erbA mod 76*, Yeast UUG start -23, PDI inh -6, INS-1E GSIS act 3, ERp5 block 3, SMARCA2 act 2, NR1D1 mod conf 50* and RORg DNA counter >40.
`O=C(COc1ccccc1)Nc1nc2cc3c(cc2s1)OCO3` gave Rev-erbA mod 41*, Yeast UUG start -15, PDI inh -2, INS-1E GSIS act -3, ERp5 block 1, SMARCA2 act 1 and NR1D1 mod conf 15.
For C[C@H]1CN([C@@H](C)CO)C(=O)Cc2cc(NC(=O)Nc3cccc4ccccc34)ccc2O[C@H]1CN(C)C(=O)Nc1ccc(C(F)(F)F)cc1 the results were Yeast UUG start 14, INS-1E GSIS act -8 and ERp5 block 3.
CCCn1c(SCN2C(=O)c3ccccc3C2=O)nc2cc(Cl)ccc2c1=O was read as Rev-erbA mod 39*, PDI inh -5, INS-1E GSIS act -7, SMARCA2 act 0 and NR1D1 mod conf -40.

As a short view, some entries already given:
For C[C@H]1CN([C@@H](C)CO)C(=O)Cc2cc(NC(=O)Nc3cccc4ccccc34)ccc2O[C@H]1CN(C)C(=O)Nc1ccc(C(F)(F)F)cc1 the results were Yeast UUG start 14, INS-1E GSIS act -8 and ERp5 block 3.
CCCn1c(SCN2C(=O)c3ccccc3C2=O)nc2cc(Cl)ccc2c1=O was read as Rev-erbA mod 39*, PDI inh -5, INS-1E GSIS act -7, SMARCA2 act 0 and NR1D1 mod conf -40.

In the list so far, these have fluorine.
`C[C@H](CO)N1C[C@H](C)[C@H](CN(C)C(=O)Nc2ccc(F)cc2)Oc2ncc(C#CCN(C)C)cc2C1=O` gave Yeast UUG start 23, INS-1E GSIS act -8 and ERp5 block -5.
For C[C@H]1CN([C@@H](C)CO)C(=O)Cc2cc(NC(=O)Nc3cccc4ccccc34)ccc2O[C@H]1CN(C)C(=O)Nc1ccc(C(F)(F)F)cc1 the results were Yeast UUG start 14, INS-1E GSIS act -8 and ERp5 block 3.

Source: PubChem (several laboratories)
